The assay deals with HER2 negative 4T1 cells. The assay can be described thus: binding of antibody conjugated QD to control HER2 negative cells. The format is cell-based. On the procedure: In Eppendorf tubes, 1 mg carboxyl-functionalised, water-soluble QDs were mixed with 100 μl MES activation buffer (i.e. 25 μl of 40 mg/ml stock into 100 μl MES). The MES buffer was prepared as a 25 mM solution (2-(N-morpholino) ethanesulfonic acid hemisodium salt (MES), Sigma Aldrich) in deionized (DI) water, pH 4.5. To this was added 33 μl of a fresh EDC solution (30 mg/ml stock in DI water, 1-ethyl-3-(3-dimethylaminopropyl) carbodiimide hydrochloride (EDC), Fisher Scientific) and the solution was mixed. To this was added 4 μl of fresh sulfo-NHS (100 mg/ml stock, ThermoFisher Scientific, in DI water) and the solution was mixed. NanoSep 300K filters (PALL NanoSep 300K Omega ultrafilters) were pre-wetted in 100 MES. The MES/EDC/Sulfo-NHS/QD solution was added to the NanoSep 300K filter and topped up 500 μl with MES. The filter was centrifuged at 5000 rpm/15 min. The retained dots were re-dispersed in 50 μl activation buffer and transferred to an Eppendorf tube containing 10 μl of trastuzumab (Herceptin®, 100 mg/ml stock in a 25 mM solution of HEPES buffer, pH 8.5)+40 μl HEPES, pH 8.5. The solution was mixed well and incubated at RT overnight (around 16-18 hours). The solution was quenched with 16 μl of 6-amino caproic acid (6AC) (19.7 mg/100 mM). […]

For the substance “traztuzumab conjugated QD: carboxyl-functionalised water-soluble cadmium free QD covalently conjugated with trastuzumab (Herceptin®) by EDC/sulfo-NHS”, the “binding to control HER2 negative cells” value is listed as “without binding”.

For the origin of these results see patent US10610591B2, “Light responsive quantum dot drug delivery system” (Nanoco Technologies Ltd., priority 2017, dated 2020).
